Reference: patent publication US4613608A (priority 1982, dated 1986)
In brackets after ≈: the same amount, converted by molar mass.

Key:
[1] = tested on: small coronary artery; details: small coronary artery strips (0.5 mm outside diameter), 35 mM KCl tonus, papaverine 10^-4 M = 100%
[2] = tested on: large coronary artery; details: for ED50 Large (L): large coronary artery strips (2.0 mm outside diameter), 35 mM KCl tonus, papaverine 10^-4 M = 100%; for S/L: ratio of ED50 small to ED50 large coronary artery

| SMILES | ED50 Small (S) [1] [µg/mL] | ED50 Large (L) [2] [µg/mL] | S/L [2] |
| --- | --- | --- | --- |
| O=[N+]([O-])OCc1cc(Cl)cc(CO[N+](=O)[O-])n1 | 0.23 (≈ 0.873 µM) | 0.00275 (≈ 0.0104 µM) | 83.6 |
| O=[N+]([O-])OCc1cccc(CO[N+](=O)[O-])n1 | 0.225 (≈ 0.982 µM) | 0.004 (≈ 0.0175 µM) | 56.3 |
